Source: US5578725A, “Delta opioid receptor antagonists” (priority 1995, dated 1996)

By UniProt entry, the sequences of proteins in these tests, tags left out. Where a name states a change or a piece, a line headed by the entry shows the natural chain unless it says otherwise.
UniProt P32300, whole entry: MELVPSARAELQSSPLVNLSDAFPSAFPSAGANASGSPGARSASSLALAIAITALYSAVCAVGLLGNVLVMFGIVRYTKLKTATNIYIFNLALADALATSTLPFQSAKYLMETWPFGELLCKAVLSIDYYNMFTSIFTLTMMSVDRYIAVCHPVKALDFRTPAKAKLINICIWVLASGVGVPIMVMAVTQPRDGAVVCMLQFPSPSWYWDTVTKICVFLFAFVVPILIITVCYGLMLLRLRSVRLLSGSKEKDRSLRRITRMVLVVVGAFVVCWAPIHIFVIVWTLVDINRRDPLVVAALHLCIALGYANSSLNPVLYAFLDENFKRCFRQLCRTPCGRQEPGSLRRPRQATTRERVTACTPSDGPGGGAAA

Legend:
[1] = target: δ1 (Mus musculus, UniProt P32300); conditions: tail flick, mice
[2] = target: T1, δ2 (Mus musculus, UniProt P32300); experiment: Tail-flick assay, antagonism of DSLET (δ2) antinociception; assay type: in vivo, male Swiss-Webster mice; conditions: mice
T1 construct: male Swiss-Webster mice; from tissue; host or cells: living mouse (male Swiss-Webster)

Substance | Control ED50 (95% C.L.) ([1]; DPDPE i.c.v., no antagonist) | Peak antinociceptive activity time ([1]; agonist) [min] | Control ED50 (95% C.L.) ([2]; DSLET i.c.v., no antagonist) | Peak antinociceptive activity time ([2]; agonist) [min]
[D-Pen^2 -D-Pen^5 ]enkephalin [DPDPE, reference compound] | 8.6 (6.5-11.1) nmol | 20 | – | –
[D-Ser^2 -Leu^5 ]enkephalin-Thr^6 [DSLET, reference compound] | – | – | 0.7 (0.3-1.0) nmol | 10
